Data from PubChem BioAssay (NCATS).
The entries are a selection whose mix differs from that of the whole data set. Inconclusive results are not listed. Active and inactive are the calls of the source. The call rests on the fitted dose curve; in most records, active means well fitted curve in the direction sought with a large enough effect; inconclusive means small, poorly fitted or top-dose-only effect, or another doubt; inactive means no such curve, though single readings can be large; an effect the other way counts as inactive or inconclusive.

Columns and labels:
[1] = qHTS of pediatric cancer cell lines to identify multiple opportunities for drug repurposing: Primary screen for TC32 cells (AID 1347089); conditions: TC32 Ewing sarcoma viability, CellTiter-Glo luminescence, 48 h; at 45.8 µM (top of the series); further: on the % scale 0 is the no-effect control and ±100 the full control effect; nearly all actives have a fitted effect of over 60% in size
How it was run: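 TC32 cells, 500-1,000/well in growth medium, compound-treated 48 h at 37 °C; viability from CellTiter-Glo luminescence. Primary screen: MIPE 11-point (0.78 nM–46 µM final), NPC 8-point (0.59 nM–46 µM final); confirmatory at 11-point dilutions.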

[2] = qHTS of pediatric cancer cell lines to identify multiple opportunities for drug repurposing: Primary screen for DAOY cells (AID 1347090); conditions: DAOY medulloblastoma viability, CellTiter-Glo luminescence, 48 h; at 46 µM (top of the series);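 further: plate controls were DMSO for no effect and bortezomib for full effect; nearly all actives have a fitted effect of over 55% in size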
How it was run: (§1)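 Eight- or eleven-point concentration series, 48 h treatment at 37 degrees C in growth media; readout CellTiter-Glo luminescence. Potency and efficacy were taken from the concentration-response curves.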

[3] = qHTS of pediatric cancer cell lines to identify multiple opportunities for drug repurposing: Primary screen for SJ-GBM2 cells (AID 1347091); conditions: SJ-GBM2 viability, CellTiter-Glo luminescence, 48 h; at 46 µM (top of the series);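 further: plate controls were DMSO neutral control for no effect and bortezomib for full effect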
How it was run: as §1

[4] = qHTS of pediatric cancer cell lines to identify multiple opportunities for drug repurposing: Primary screen for A673 cells (AID 1347092); conditions: A673 Ewing sarcoma viability, CellTiter-Glo ATP luminescence, 48 h; at 46 µM (top of the series); further: on the % scale 0 is the no-effect control and ±100 the full control effect; nearly all actives have a fitted effect of over 45% in size
How it was run: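 A673 cells (500-1,000 cells/well) were treated 48 hours at 37 degrees C with compounds at 11-point (0.78 nM to 46 µM) or 8-point (0.59 nM to 46 µM) dilutions. Viability read by CellTiter-Glo luminescence; concentration-response curves fitted.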

[5] = qHTS of pediatric cancer cell lines to identify multiple opportunities for drug repurposing: Primary screen for BT-37 cells (AID 1347094); conditions: BT-37 viability, CellTiter-Glo luminescence, 48 h; at 57.3 µM (top of the series);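 further: plate controls were DMSO for no effect and bortezomib for full effect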
How it was run: (§2)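 Luminescence from CellTiter-Glo served as readout of metabolically active cells after 48 h compound exposure. Titrations: MIPE 11-point, from 0.78 nM; NPC 8-point, from 0.59 nM (final). Concentration-response curves came straight from the primary screen.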

[6] = qHTS of pediatric cancer cell lines to identify multiple opportunities for drug repurposing: Primary screen for NB-EBc1 cells (AID 1347095); conditions: NB-EBc1 neuroblastoma viability, CellTiter-Glo luminescence, 48 h; at 46 µM (top of the series);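 further: plate controls were DMSO neutral control for no effect and bortezomib for full effect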
[7] = qHTS of pediatric cancer cell lines to identify multiple opportunities for drug repurposing: Primary screen for U-2 OS cells (AID 1347096); conditions: U-2 OS viability, CellTiter-Glo luminescence, 48 h; at 46 µM (top of the series);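 further: plate controls were DMSO wells for no effect and bortezomib positive control wells for full effect; nearly all actives have a fitted effect of over 50% in size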
How it was run: (§3)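 Cells (500-1,000/well) in growth media were settled 5 h at 37 degrees C, then given compounds for 48 h. Viability was read as CellTiter-Glo luminescence. Primary runs used MIPE at 11 points (0.78 nM-46 µM) and NPC at 8 points (0.59 nM-46 µM); follow-ups used 11 points.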

[8] = qHTS of pediatric cancer cell lines to identify multiple opportunities for drug repurposing: Primary screen for Saos-2 cells (AID 1347097); conditions: Saos-2 viability, CellTiter-Glo ATP luminescence, 48 h; at 46 µM (top of the series); further: on the % scale 0 is the no-effect control and ±100 the full control effect; nearly all actives have a fitted effect of over 40% in size
How it was run: as §2

[9] = qHTS of pediatric cancer cell lines to identify multiple opportunities for drug repurposing: Primary screen for SK-N-SH cells (AID 1347098); conditions: SK-N-SH viability, CellTiter-Glo luminescence, 48 h; at 57 µM (top of the series);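 further: DMSO served as neutral control and bortezomib at 2.3 µM as positive control; on the % scale 0 is the no-effect control and ±100 the full control effect; nearly all actives have a fitted effect of over 65% in size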
How it was run: (§4)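 Cells (500-1,000/well) rested 5 h, then received compounds for 48 h; metabolically active cells were measured by CellTiter-Glo luminescence. Final concentrations spanned up to 46 µM (MIPE, 11-point) or 0.59 nM-46 µM (NPC, 8-point) in primary screens, 11-point in follow-ups.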

[10] = qHTS of pediatric cancer cell lines to identify multiple opportunities for drug repurposing: Primary screen for NB1643 cells (AID 1347099); conditions: NB1643 neuroblastoma viability, CellTiter-Glo luminescence, 48 h; at 46 µM (top of the series);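 further: plate controls were DMSO neutral control for no effect and bortezomib positive control for full effect; nearly all actives have a fitted effect of over 50% in size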
[11] = qHTS of pediatric cancer cell lines to identify multiple opportunities for drug repurposing: Primary screen for LAN-5 cells (AID 1347100); conditions: LAN-5 neuroblastoma viability, CellTiter-Glo luminescence, 48 h; at 46 µM (top of the series);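 further: plate controls were DMSO neutral control for no effect and bortezomib positive control for full effect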
How it was run: as §3

[12] = qHTS of pediatric cancer cell lines to identify multiple opportunities for drug repurposing: Primary screen for BT-12 cells (AID 1347101); conditions: BT-12 viability, CellTiter-Glo luminescence, 48 h; at 57.3 µM (top of the series);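 further: plate controls were DMSO for no effect and bortezomib positive control for full effect; nearly all actives have a fitted effect of over 25% in size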
How it was run: as §4

[13] = qHTS of pediatric cancer cell lines to identify multiple opportunities for drug repurposing: Primary screen for Rh18 cells (AID 1347102); conditions: Rh18 rhabdomyosarcoma viability, CellTiter-Glo luminescence, 48 h; at 46 µM (top of the series); further: on the % scale 0 is the no-effect control and ±100 the full control effect; nearly all actives have a fitted effect of over 65% in size
How it was run: as §3

[14] = qHTS of pediatric cancer cell lines to identify multiple opportunities for drug repurposing: Primary screen for OHS-50 cells (AID 1347103); conditions: OHS-50 osteosarcoma viability, CellTiter-Glo luminescence, 48 h; at 57.3 µM (top of the series);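 further: plate controls were DMSO neutral control for no effect and bortezomib positive control for full effect; nearly all actives have a fitted effect of over 40% in size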
How it was run: as §4

[15] = qHTS of pediatric cancer cell lines to identify multiple opportunities for drug repurposing: Primary screen for RD cells (AID 1347104); conditions: RD rhabdomyosarcoma viability, CellTiter-Glo luminescence, 48 h; at 46 µM (top of the series);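 further: plate controls were DMSO for no effect and bortezomib for full effect; nearly all actives have a fitted effect of over 55% in size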
How it was run: as §2

[16] = qHTS of pediatric cancer cell lines to identify multiple opportunities for drug repurposing: Primary screen for MG 63 (6-TG R) cells (AID 1347105); conditions: MG 63 (6-TG R) viability, CellTiter-Glo, 48 h; at 46 µM (top of the series); further: on the % scale 0 is the no-effect control and ±100 the full control effect; nearly all actives have a fitted effect of over 50% in size
How it was run: as §2

[17] = P-glycoprotein substrates identified in KB-8-5-11 adenocarcinoma cell line, qHTS therapeutic library screen (AID 1346987); conditions: KB-8-5-11 (P-gp overexpressing) viability, CellTiter-Glo, 72 h; at 44.5 µM (top of the series); further: on the % scale 0 is the no-effect control and ±100 the full control effect; nearly all actives have a fitted effect of over 65% in size
How it was run: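 In this qHTS, P-gp-rich KB-8-5-11 cells received library compounds across a concentration range. Viability was quantified by luminescence after 72 h at 37 degree C.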

[18] = qHTS Screen of the MIPE 4.0 Collection Against Ewings Sarcoma (TC71) (AID 1259253); conditions: TC71 Ewing sarcoma viability, CellTiter-Glo, 48 h; at 45.8 µM (top of the series);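 further: 100% = DMSO-treated cells and 0% = medium-only wells without cells; nearly all actives have a fitted effect of over 40% in size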
How it was run: (§5)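 Compound titrations go onto adherent log-phase cells 4 h after seeding, incubate 48 h at 37C, then CellTiter-Glo luminescence reports viability relative to DMSO and cell-free controls.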

[19] = qHTS Screen of the MIPE 4.0 Collection Against Ewings Sarcoma (TC32) (AID 1259256); conditions: TC32 Ewing sarcoma viability, CellTiter-Glo, 48 h; further: potency means the concentration at half of the fitted maximal effect; nearly all actives have a fitted effect of over 45% in size
How it was run: as §5

[20] = qHTS of pediatric cancer cell lines to identify multiple opportunities for drug repurposing: Primary screen for SK-N-MC cells (AID 1347093); further: potency means the concentration at half of the fitted maximal effect;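 on activity change, negative = cytotoxic: plate controls were DMSO neutral control for no effect and bortezomib for full effect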

Row | Compound | activity change, negative = cytotoxic [1] | activity change, negative = cytotoxic [2] | activity change, negative = cytotoxic [3] | activity change, negative = cytotoxic [4] | activity change, negative = cytotoxic [5] | activity change, negative = cytotoxic [6] | activity change, negative = cytotoxic [7] | activity change, negative = cytotoxic [8] | activity change, negative = cytotoxic [9] | activity change, negative = cytotoxic [10] | activity change, negative = cytotoxic [11] | activity change, negative = cytotoxic [12] | activity change, negative = cytotoxic [13] | activity change, negative = cytotoxic [14] | activity change, negative = cytotoxic [15] | activity change, negative = cytotoxic [16] | activity change, negative = cytotoxicity [17] | viability (% of DMSO) [18] | Potency [19] | Potency [20]
1 | CCC(=O)N(c1ccccc1)C1CCNCC1 | inactive: -1.12% | inactive: -3.28% | inactive: 11.2% | inactive: -3.92% | inactive: 6.82% | inactive: 8.28% | inactive: 6.36% | inactive: -7.21% | inactive: 14.2% | inactive: -2.38% | inactive: -1.49% | inactive: 14.7% | inactive: -0.809% | inactive: 4.49% | inactive: 9.26% | inactive: -5.31% |  |  |  | 
2 | CC(=O)N1CCc2ccc(N(C(=O)/C=C/c3cccc(C#N)c3)C3CCN(CCC4CCCC4)CC3)cc21 |  |  |  |  |  |  |  |  |  |  |  |  |  |  |  |  | inactive: -20.8% |  |  | 
3 | CCOC(=O)C(=O)CBr | inactive: -2.01% | inactive: -10.6% | inactive: -4.58% | inactive: -28.9% | inactive: -0.426% | inactive: -7.09% | inactive: 1.14% | inactive: -18.3% | inactive: 5.95% | inactive: -1.09% | inactive: 4.28% | inactive: 1.75% | inactive: 4.04% | inactive: 2.67% | inactive: -9.94% | inactive: -4.95% | inactive: -0.609% | inactive: 120% | active: 4.7 nM | inactive
4 | CCOC(=O)N1CCC(=O)CC1 | inactive: 8.65% | inactive: 8.14% | inactive: 19.2% | inactive: 9.26% | inactive: 15.3% | inactive: 21.3% | inactive: 10.3% | inactive: -6.52% | inactive: -7.1% | inactive: 24.8% | inactive: 9.75% | inactive: 11.7% | inactive: 38.4% | inactive: 12.6% | inactive: 11.2% | inactive: -9.4% |  |  |  | active: 1 nM
